# Apparent affinities of Ab-14 variants for a coronavirus HR2 peptide

Reference: Li et al. 2023, doi:10.1038/s41467-023-39022-2. File: FLAb, binding data.

Antigen: PDVDLGDISGINAS, a 14-residue peptide of the SARS-CoV-2 spike HR2 region.

Ab-14 is the parent antibody, in scFv form: VH, then a 15-residue (Gly4Ser)3 linker, then VL. The light chain is unchanged in all variants.
VH: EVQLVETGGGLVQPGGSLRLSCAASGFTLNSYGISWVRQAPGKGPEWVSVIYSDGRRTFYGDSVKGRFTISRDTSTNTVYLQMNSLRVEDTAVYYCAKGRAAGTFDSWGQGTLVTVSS
VL: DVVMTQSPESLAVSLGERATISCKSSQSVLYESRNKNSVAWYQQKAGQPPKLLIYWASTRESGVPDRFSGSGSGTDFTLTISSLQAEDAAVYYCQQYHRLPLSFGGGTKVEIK

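Designed CDR sequences, proposed from the first random library and measured here. Several design methods are mixed in this list. The assay is AlphaSeq: two haploid yeast populations carry antibody and antigen on their surface. Pairs that bind mate more often; barcode pairs of the diploids are counted by sequencing. Each replicate has its own calibration line, from reference interactions of the BCL2 family. The assay was run in six technical replicates.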

Variants are written as CDR1, CDR2 and CDR3 of the heavy chain (limits as in the source). Parent: GFTLNSYGIS, VIYSDGRRTFYGDSVK, GRAAGTFDS.
Variants here have more than six changes.
Values are apparent Kd, the geometric mean of the replicates that gave a signal; lower means stronger binding.
"no signal" means that the variant was in the library but no mating with the target was seen in any replicate; the authors take this as a sign of poor binding, and no number exists.
Order: sorted from the lowest average up, undetected variants last.
Values of this round are not directly comparable with the first-round values of the same sequences.
As a blank, each scFv also met three strains without target: over all heavy chain designs, 1% of these pairings were detected, typically at 120 nM and seldom below 7.0 nM.
In the paper, a design with two or fewer of six values counts as a poor binder.
Of ten entries with the parent sequence, four were seen in most replicates (averages 2.2 nM to 240 nM), three in one and three in none, so single entries are noisy.

For GFDLNEYGIS / VIYADGKRTAYIDSVK / GNNAGTFDI, the assay gave 25 pM (6 of 6 replicates). The variant GFDLEDYGIS / VIYADGQRTAYSDSVK / GNVAGTFDV showed 89 pM (2 of 6 replicates). The variant GFDLDEYGIS / VIYADGRRTFYQDSVK / GQAAGTFDQ showed 150 pM (6 of 6 replicates). The variant GFDLNEYGIS / VIYADGRRTAYKDSVK / GQLAGTFDT showed 190 pM (6 of 6 replicates). The variant GFDLNEYGIS / VIYADGMRTAYADDVK / GEVAGTFDM gave 230 pM (6 of 6 replicates).

The variant GFDLNEYGIS / VIYADGMRKVYADSVK / GNVAGTFDL gave 240 pM (6 of 6 replicates). The variant GFDLNEYGIS / VIYADGRRTAYADSVK / GQNAGTFDV showed 250 pM (6 of 6 replicates). The variant GFDLNEYGIS / VIYADGMRTVYADSVK / GTNAGTFDV gave 270 pM (6 of 6 replicates). The variant GFDLNEYGIS / VIYADGRRTFYADSVK / GNVAGTFNV gave 270 pM (6 of 6 replicates). The variant GFDLNEYGIS / VIYADGQRTYYADSVK / GNVAGTFDQ gave 320 pM (6 of 6 replicates).

The variant GFDLNEYGIS / VIYADGRRTFYKDSVK / GETAGTFDQ showed 360 pM (6 of 6 replicates). The variant GFDLDEYGIS / VIYADGRRTAYSDSVK / GEVAGTFDT gave 520 pM (6 of 6 replicates). The variant GFDLNEYGIS / VIYADGLRTAYSDDVK / GNVAGTFDV showed 540 pM (6 of 6 replicates). For GFDLNEYGIS / VIYADGRRTAYVDSVK / GEIAGTFDV, the assay gave 640 pM (6 of 6 replicates). The variant GFDLNEYGIS / VIYADGKRTSYADSVK / GNVAGTFDL gave 660 pM (5 of 6 replicates).

The variant GFDINEYGIS / VIYADGRRTAYADSVK / GENAGTFDV gave 730 pM (6 of 6 replicates). The variant GFDLNEYGIS / VIYADGMRTFYADNVK / GEVAGTFDI gave 750 pM (6 of 6 replicates). The variant GFDLNEYGIS / VIYADGRRQFYADKVK / GENAGTFNV showed 820 pM (5 of 6 replicates). The variant GFDLNEYGIS / VIYADGQRTAYADNVK / GQVAGTFDI showed 820 pM (6 of 6 replicates). The variant GFDLDEYGIS / VIYADGVRTAYADDVK / GNQAGTFDV showed 1.1 nM (6 of 6 replicates).

The variant GFDLNEYGIS / VIYADGQRTAYTDSVK / GNNAGTFDI showed 1.2 nM (1 of 6 replicates). The variant GFDLDEYGIS / VIYADGRRTAYADNVK / GNVAGTFDL gave 1.9 nM (6 of 6 replicates). The variant GFDLNEYGIS / VIYADGMRTHYTDSVK / GNEAGTFDF showed 2.1 nM (3 of 6 replicates). The variant GFDLNEYGIS / VIYADGVRTAYADKVK / GNVAGTFDL showed 3.1 nM (6 of 6 replicates). The variant GFDLDEYGIS / VIYADGMRTSYADSVK / GENAGTFDV gave 6.8 nM (6 of 6 replicates).

The variant GFDLDEYGIS / VIYADGMRTAYADSVK / GNAAGTFDV gave 7.1 nM (6 of 6 replicates). With GFNLDEYGIS / VIYADGRRTFYADSVK / GNHGGTFDT the result was 27 nM (6 of 6 replicates). For GFNLDEYGIS / VIYADGRRTFYTDSVK / GGNAGTFDV, the assay gave 100 nM (5 of 6 replicates). The variant GGDIQDYGIS / VIYADGQRASYADEVK / GNIGGIFSD gave 1.0 µM (1 of 6 replicates). The variant KFDLEAYGIS / VIYADGVRAAYVDKVK / GQTGGMFDQ gave no signal (0 of 6 replicates).

The variant GFSLDEYGIS / VIYADGVRTQYDDSFK / GTGDFDIEG showed no signal (0 of 6 replicates). With GFNISEYGIS / VIYADGRRTSYKNKVK / GNDTWLFDV the result was no signal (0 of 6 replicates). For GFGLDEYGIS / VIYADGMRAAYVTSVK / GYEAGTFFT, the assay gave no signal (0 of 6 replicates).

A selection of 3 entries from above:

| CDR-H1 | CDR-H2 | CDR-H3 | Kd (apparent) | detected |
|---|---|---|---|---|
| GFDINEYGIS | VIYADGRRTAYADSVK | GENAGTFDV | 730 pM | 6 of 6 |
| GFDLNEYGIS | VIYADGKRTSYADSVK | GNVAGTFDL | 660 pM | 5 of 6 |
| GFDLNEYGIS | VIYADGMRTFYADNVK | GEVAGTFDI | 750 pM | 6 of 6 |